Measurements as given in paper PMC6139374 (Cell, 2018).

Target: non-C-terminally phosphorylated Akt1
Assay: Fluorescence anisotropy binding of PDK1 to fluorescein-labeled Akt1
Design: species or system human

Kd (GST-PDK1, 0.4 μM fluorescein-labeled Akt1): 200 nM
Kd, fold lower than for binding to pSer473 Akt1 (non-C-terminally phosphorylated vs pSer473 Akt1): about 2 fold
B1: PDK1: recombinant GST-tagged human PDK1 protein kinase (protein)
chain: MARTTSQLYDAVPIQSSVVLCSCPSPSMVRTQTESSTPPGIPGGSRQGPAMDGTAAEPRPGAGSLQHAQPPPQPRKKRPEDFKFGKILGEGSFSTVVLARELATSREYAIKILEKRHIIKENKVPYVTRERDVMSRLDHPFFVKLYFTFQDDEKLYFGLSYAKNGELLKYIRKIGSFDETCTRFYTAEIVSALEYLHGKGIIHRDLKPENILLNEDMHIQITDFGTAKVLSPESKQARANSFVGTAQYVSPELLTEKSACKSSDLWALGCIIYQLVAGLPPFRAGNEYLIFQKIIKLEYDFPEKFFPKARDLVEKLLVLDATKRLGCEEMEGYGPLKAHPFFESVTWENLHQQTPPKLTAYLPAMSEDDEDCYGNYDNLLSQFGCMQVSSSSSSHSLSASDTGLPQRSGSNIEQYIHDLDSNSFELDLQFSEDEKRLLLEKQAGGNPWHQFVENNLILKMGPVDKRKGLFARRRQLLLTEGPHLYYVDPVNKVLKGEIPWSQELRPEAKNFKTFFVHTPNRTYYLMDPSGNAHKWCRKIQEVWRQRYQSHPDAAVQ
modifications: left off: GST, N-terminal, kept
